Target: T1, vitronectin receptor (Vn-R) (Homo sapiens, UniProt P05106+P06756)
T1 construct: from tissue; host or cells: human placenta
Test: VnR binding, ELISA or liposome attachment assay (Table I)
Conditions: not given
Method: Receptor and ligand purifications were performed according to the methods in this Example or those in Examaple XI.C. Receptors were purified according to the procedures of Pytela et al. (Methods Enzymol. 144:475 (1987)), incorporated herein by reference. […] After extraction, the suspension was filtered over a Sepharose 6B column and then applied to a GRGDSPK column. Except where stated, all procedures were carried out at 4° C. The peptide column was washed with three volumes of Tris-buffered saline (TBS) containing 1 mM Ca^2+ and Ca^2+ and 25 mM OG and then with TBS containing 1 mM 25 mM octyl thioglucoside (OTG) at room temperature. […] Finally, Ca^2+ and Mg^+2 were added to eluted fractions to achieve final concentrations of 1 mM for both ions.
Maxisorp microtiter plates were coated with 2 μg/ml human vitronectin dissolved in PBS ([…]) and stored overnight at 4° C. The plates were washed two times with PBS-0.05% Tween-20 (wash buffer) and blocked by incubating with about 150 μl/well of assay buffer (1%, BSA (RIA grade or better) in 50 mM Tris-HCl, 100 mM NaCl, 1 mM MgCl2, CaCl2, MnCl2 pH 7.4) for 60 minutes. Dilutions of standards were prepared and putative inhibitors (Table 2) were dissolved in assay buffer. The blocked plates were emptied and 20 μl/well of inhibitor or standard solution was added to each well. Twenty-five μl of a 30 μg/ml solution of purified αV β3 in assay buffer was pipetted into the coated plate. The final concentration of receptor in the assay well was about 15 μg/ml. The plate was incubated on a shaker for 60 minutes. Meanwhile, for each microtite plate, 6 ml buffer solution containing 1.5 μg/ml of mouse monoclonal antibody specific for β3 is prepared. To this solution was added the secondary antibody which is anti-mouse-Fc-HRP antibody conjugate. For example, for one plate, 6 ml of a 1.5 μg/ml mouse Mab solution was prepared to which was added 1 μl of anti-mouse-Fc-HRP antibody stock, (this represents a 1:6000 dilution of the antibody--HRP conjugate). This mixture was allowed to incubate during the receptor-inhibitor incubation. The assay plates were washed 4 times with PBS-Tween and 50 μl/well of the antibody mixture was then pipetted into the plate for a 60 minute incubation. The plate was washed 4 times and the color reaction was developed with 50 μl/well of 0.67 mg/ml o-phenyldiamine in PBS containing 0.012% H2 O2. Alternatively, 16 mM citric acid, 50 mM Na2 PO4 at pH 5.0 can be used as a substrate buffer. The reaction is stopped with 50 μl/well 1 M H2 SO4. The plates were read at 492-405 nm and the data analyzed by four-parameters fit.
This assay was performed with minor modifications, according to the method of Pytela et al., Methods Enzymol. 144:475 (1987), incorporated herein by reference. Briefly, 1:4 mixture of labelled and unlabelled phosphatidylcholine (PC) liposomes was dissolved under nitrogen and diluted with an equal volume of purified receptor (purified as described in Example II) to achieve a fixed predetermined receptor-liposome concentration ratio. This mixture was then dialyzed overnight at 4° C. in phosphate buffered saline (PBS) containing 1 mM Ca^2+. An aliquot of the dialyzed sample was counted to assess radioactive content; the receptor-liposome mixture was then diluted to obtain a set radioactivity per unit volume.
Microtiter plates were coated with 10 μg of vitronectin. Non-specific sites were blocked for 2 hours at 37° C. in PBS containing 5 mg/ml BSA and 1 mM each of CaCl2 and MgCl2. The plates were then rinsed twice with PBS containing 1 mM Ca^+2 and Mg^+2, and 100 μl of the liposome-receptor mixture was added to each well. If necessary, peptides were added before this step in a 1-10% dilution. The plates were then incubated at 4° C. for 24 hours. The following day, the liquid in each well was aspirated and the plates were washed twice with PBS containing 1 mM Ca^+2 and Mg^+2. […]

The chains behind the UniProt entries cited, without tags or fusion partners. Residues count along the entry.
UniProt P05106, 27-788: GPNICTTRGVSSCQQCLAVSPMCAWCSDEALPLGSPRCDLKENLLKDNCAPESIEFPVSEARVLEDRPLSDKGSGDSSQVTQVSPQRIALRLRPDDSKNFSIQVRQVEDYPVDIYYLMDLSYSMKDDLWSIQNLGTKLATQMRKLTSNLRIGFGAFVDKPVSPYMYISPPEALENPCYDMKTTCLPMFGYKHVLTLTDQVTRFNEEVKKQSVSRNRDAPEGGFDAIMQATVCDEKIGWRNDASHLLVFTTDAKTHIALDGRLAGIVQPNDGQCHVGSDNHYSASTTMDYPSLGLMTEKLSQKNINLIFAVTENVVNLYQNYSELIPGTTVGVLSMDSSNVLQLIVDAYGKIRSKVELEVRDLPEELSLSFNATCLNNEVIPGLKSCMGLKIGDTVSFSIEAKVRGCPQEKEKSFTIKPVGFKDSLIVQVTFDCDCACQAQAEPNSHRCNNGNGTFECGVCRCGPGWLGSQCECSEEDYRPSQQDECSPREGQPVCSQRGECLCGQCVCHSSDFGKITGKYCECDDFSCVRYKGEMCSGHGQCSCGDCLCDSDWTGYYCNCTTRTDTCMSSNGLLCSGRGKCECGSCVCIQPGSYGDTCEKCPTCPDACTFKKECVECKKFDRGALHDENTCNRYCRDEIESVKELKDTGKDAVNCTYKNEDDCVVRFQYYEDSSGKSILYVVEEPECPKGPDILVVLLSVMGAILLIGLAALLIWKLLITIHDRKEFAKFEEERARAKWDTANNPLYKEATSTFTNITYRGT
UniProt P06756, 891-1048 partner limits assumed: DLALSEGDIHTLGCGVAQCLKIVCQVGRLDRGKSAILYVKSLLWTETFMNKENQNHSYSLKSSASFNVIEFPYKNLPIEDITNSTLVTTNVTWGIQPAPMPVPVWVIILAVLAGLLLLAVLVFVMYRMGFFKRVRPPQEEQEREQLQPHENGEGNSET
UniProt P06756, 31-889 limits assumed: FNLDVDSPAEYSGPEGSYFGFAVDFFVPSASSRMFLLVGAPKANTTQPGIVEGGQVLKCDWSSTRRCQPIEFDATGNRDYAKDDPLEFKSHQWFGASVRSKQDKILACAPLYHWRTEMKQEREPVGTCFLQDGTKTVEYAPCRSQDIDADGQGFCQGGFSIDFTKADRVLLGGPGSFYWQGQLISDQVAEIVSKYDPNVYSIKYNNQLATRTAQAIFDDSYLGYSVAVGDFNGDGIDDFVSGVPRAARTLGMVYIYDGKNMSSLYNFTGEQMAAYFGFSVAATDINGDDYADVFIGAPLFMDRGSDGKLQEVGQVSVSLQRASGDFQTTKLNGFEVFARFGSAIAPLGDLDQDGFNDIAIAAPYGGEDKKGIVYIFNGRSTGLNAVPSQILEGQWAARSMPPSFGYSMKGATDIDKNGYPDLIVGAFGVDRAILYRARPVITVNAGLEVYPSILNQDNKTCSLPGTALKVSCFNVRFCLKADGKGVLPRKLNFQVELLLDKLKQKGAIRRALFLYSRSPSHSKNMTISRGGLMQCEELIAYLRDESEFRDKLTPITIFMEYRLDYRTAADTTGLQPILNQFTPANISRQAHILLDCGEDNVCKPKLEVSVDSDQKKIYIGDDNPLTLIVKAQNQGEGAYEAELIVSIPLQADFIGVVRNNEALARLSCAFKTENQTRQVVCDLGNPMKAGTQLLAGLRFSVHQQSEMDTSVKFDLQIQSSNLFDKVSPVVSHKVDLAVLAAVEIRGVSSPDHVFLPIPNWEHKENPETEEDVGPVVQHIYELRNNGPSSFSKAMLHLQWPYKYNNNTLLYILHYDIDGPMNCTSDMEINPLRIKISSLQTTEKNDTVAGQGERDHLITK

| Substance | IC50 [nM] |
| --- | --- |
| G(Pen)GRGDRPCA | 470 |
| G(Pen)GRGDSPCA | 150 |
| G(Pen)GRGDTPCA | 33 |
| G(Pen)IARGDWNCA | 41 |
| G(Pen)LRGDSPCA | 260 |
| G(Pen)LRGDSRCA | 1350 |
| G(Pen)LRGDTPCA | 250 |
| R(Pen)GHRGDWRCR [4Q] | 6900 |
| R(Pmc)GHRGD(O-n-butyl-Tyr)RCR | 2200 |
| R(Pmc)GHRGDYRCR | 7850 |
| R(Pmc)NHRGD(O-Me-Tyr)-RCR | 6900 |

System: not listed separately
Test: Rabbit peripheral blood flow (PBF), laser dopler flow probe
Format: in vivo
Conditions: time 0 min, bolus dose printed with drug
Method: In an alternative series of experiments, (Table 2) PBF was measured quantitatively with a laser dopler flow probe (Perimed). The probe was positioned securely over the vascular bed of one ear and flow monitored continuously. Each inhibitor was infused and CBT measured in the opposing ear. No arterial catheter was placed for blood sampling, consequently XPA was measured in these animals.
As positive control, epinephrine was infused intravenously (1 mg over 2 minutes) at 60 minutes. The resulting vasoconstriction reduced flow to near 0 flow units within 5 minutes.

| Substance | PBF [units] |
| --- | --- |
| R(Pen)GHRGDWRCR [4Q] | 282 |
